Experimental findings from US20260265262A1, “CDK2 INHIBITORS AND METHODS OF USING THE SAME” (Cedilla Therapeutics, Inc., priority 2022, published 2026) are described below.

One experiment has as its system Kuramochi cells. Description: IncuCyte cell proliferation assay. The class given is cell-based. To be noted: read-out: IncuCyte Kuramochi RB-WT: IC50; Kuramochi cells labeled with mApple-H2B, cell count 0 to 72 hours, 20 μM top concentration. How it is done:
IncuCyte® assay was used to measure the effect of disclosed compounds on cell proliferation. Fluorescent microscopy images of cells were taken immediately after compound treatment and 72 hours later. Image analysis software was used to obtain cell counts as a function of compound concentration. Kuramochi cells labeled with mApple-H2B were seeded on 384-well assay-ready plates. Plates were placed in an IncuCyte® (Sartorius) and scanned at 0 and 72 hours. IncuCyte® software was used to count the number of fluorescent nuclei in each well. The fold change in cell count from 0 to 72 hours in wells treated with increasing compounds concentrations (10 pts, 1/2 log dilution, 20 μM top concentration) was normalized to DMSO control wells. The normalized cell counts were fit with dose response curves and a […] was calculated.

The target in experiment [1] is T1, CDK2/Cyclin E1 (Homo sapiens, UniProt P24941). Description: ADP-Glo Luminescent Kinase Assay (CDK2/E1-37C). As to conditions: read-out: ADPGLO (CDK2/E1-37C): IC50; 0.18 nM CDK2/Cyclin E1, 100 μM ATP, 1.5 μM Histone H1, 37° C., 60 min pre-incubation. The class given is biochemical. The method, then: Inhibition of CDK2/Cyclin E1 activity by the presence of small molecules was evaluated using ADP-Glo Luminescent Kinase Assay (Promega). Activated CDK2/Cyclin E1 was incubated with its substrate Histone H1 (SignalChem H10-54N) in the kinase reaction buffer (100 μM ATP, 50 mM HEPES pH 7.5, 10 mM MgCl2, 1 mM EDTA, 2 mM DTT, 0.01% Brij35, 0.5 mg/mL BSA). Luminescence was recorded with an Envision plate reader (PerkinElmer).
Dose titrations of inhibitors in 100% DMSO were combined with 0.36 nM CDK2/Cyclin E1 in reaction buffer. The mixtures were incubated for 60 minutes at 37° C. before the addition of ATP and Histone H1 substrate to initiate the kinase reaction. The final conditions were 0.18 nM CDK2/Cyclin E1, 100 μM ATP, and 1.5 μM Histone H1. The reactions were incubated at 37° C. for 90 minutes before being stopped with the addition of ADP-Glo reagent. This mixture was incubated at room temperature for 60 minutes before Kinase Detection Solution is added to generate luminescence. The stopped reactions were analyzed on an Envision plate reader. The conversion ratios were normalized to yield % activity, plotted against compound concentration, and fit to a four-parameter equation to determine the IC50 for each compound.

For experiment [2], the target named is T1, CDK2/Cyclin E1. Description: CDK2/Cyclin E1 Caliper LabChip EZ Reader mobility shift assay. As to conditions: read-out: Caliper Assay (CDK2/CCNE1): IC50; 2.5 nM CDK2/Cyclin E1, 100 μM ATP, 1.5 μM fluorescent peptide, 30 min pre-incubation. The method, then:
Inhibition of CDK2/Cyclin E1 activity in the presence of compounds of the present disclosure was evaluated using a CaliperLabChip® EZ Reader mobility shift assay. In the assay, CDK2/Cyclin E1 (Eurofins, 14-475) catalyzed the phosphorylation of a fluorescently tagged peptide 5-FAM-QSPKKG-CONH2 (PerkinEliner, FL Peptide 18) which induced a difference in capillary electrophoresis mobility. The peptide substrate and product were measured, and the conversion ratio was used to determine the inhibition (as % activity and IC50 values) of CDK2/Cyclin E1. Reactions contained 50 mM HEPES pH 7.5, 10 mM MgCl2, 1 mM EDTA, 2 mM DTT, 0.01% Brij35, 0.5 mg/mL BSA, 0.1% DMSO, 2.5 nM CDK2/Cyclin E1, 100 μM ATP, and 1.5 μM fluorescent peptide substrate.
Dose titrations of inhibitors in 100% DMSO were combined with 3.25 nM CDK2/Cyclin E1 and 130 μM of ATP in reaction buffer. The mixtures were incubated for 30 minutes before the addition of fluorescent peptide substrate to initiate the kinase reaction. The final conditions were 2.5 nM CDK2/Cyclin E1, 100 μM ATP, and 1.5 μM fluorescent peptide. The reactions were stopped after 100 minutes with the addition of EDTA (400 mM final EDTA concentration). The stopped reactions were analyzed on a Caliper LabChip® EZ Reader II. […]

For `C[C@@H](OCC12CCC(CC1)OC2)[C@H](NC(=O)[C@@H]1CN(C(=O)c2cnn(Cc3ccc(C(F)(F)F)cc3)c2)CC12CN(C(=O)C1(C(F)(F)F)CC1)C2)C(=O)N1CCC(c2ccc3c(c2)CCOC3=O)CC1`, the IC50 in the experiment with Kuramochi cells was 0.5 to 5 µM; on CDK2/Cyclin E1 [1], under 0.5 µM.
Take `C[C@@H](OCC1(CO)CC=CCC1)[C@H](NC(=O)[C@@H]1CN(C(=O)c2cncs2)CC12CN(C(=O)[C@H]1CC1(C)C)C2)C(=O)N1CCC(C(F)(F)F)CC1` (stereo partly drawn): the IC50 is 0.5 to 5 µM with Kuramochi cells and under 0.01 µM at CDK2/Cyclin E1 [2].
For `CNC(=O)C(NC(=O)[C@@H]1CN(C(=O)c2cncs2)CC12CN(CC1CCCO1)C2)[C@@H](C)OCC1(CO)CC=CCC1` (stereo partly drawn) the same measures were over 20 µM and 0.1 to 1 µM.
For `C[C@@H](OCC1CCOCC1)[C@H](NC(=O)[C@@H]1CN(C(=O)c2cnn(Cc3ccc(C(F)(F)F)cc3)c2)CC12CN(C(=O)C1(C(F)(F)F)CC1)C2)C(=O)N1CCC2(CC1)COC2`, the figures for the IC50 in the experiment with Kuramochi cells and on CDK2/Cyclin E1 [1] were over 20 µM and 0.5 to 5 µM, respectively.
For `C[C@@H](OCC1CCOCC1)[C@H](NC(=O)[C@@H]1CN(C(=O)c2nccnc2O)CC12CN(C(=O)C1(C(F)(F)F)CC1)C2)C(=O)N1CCC2(CC1)CC2` the same measures were over 20 µM and over 10 µM.
For `C[C@@H](OCC12CCC(CC1)OC2)[C@@H](COC1CCNCC1)NC(=O)[C@@H]1CN(C(=O)c2cnn(Cc3ccccc3C(=O)O)c2)CC12CN(C(=O)C1(C(F)(F)F)CC1)C2` the same measures were over 20 µM and 0.5 to 5 µM.
